Columns and labels:
[1] = system: FBXW5 (mature mRNA transcript); assay: In vivo PD RT-qPCR in NCI-N87 tumors, FBXW5; design: species or system CB17-SCID mice; details: 10 mg/kg IV single dose, NCI-N87 xenograft, versus vehicle
Protocol: (§1) Single cell suspension of 5 million cells per 0.1 mL (50% ATCC-modification-RPMI-1640-medium, Cat. No. A10491-01 (Thermo-Fisher Scientific); and 50% Corning Matrigel, Cat No. 356254 (VWR Scientific)) was injected subcutaneously on the right lateral flank with a syringe with a 25 Ga needle. Mice were randomized on day 0 at a mean tumor volume of 180-183 mm^3, n=8 per group for efficacy and n=4 per group for pharmacodynamics (PD). On day 1, test articles were administered (10 mg/kg) at a volume of 5 mL/kg intravenously every 7 days for 2 cycles for efficacy; a single course of treatment was used for PD assessment. Animals in the PD cohorts were euthanized at 24, 48, 72, and/or 96 hours post-dosing of a single dose, depending on the test article. Tumor volume and body weight were measured one or two times weekly until the termination (day 61) of the study. Tumor volume was calculated using the formula length×width^2/2. […]
(§2) Quantitative PCR from cDNA was performed using TaqMan Gene Expression Master Mix (ThermoFisher Scientific) with transcript probes targeting FBXW5 or TAOK1 junctions duplexed with RPLP0 RNA VIC-PL (ThermoFisher Scientific) and quantified using the ΔΔCt method.
(§3) RT-qPCR of FBXW5 (mature mRNA transcript) and TAOK1 (neojunction transcript) were monitored. […]

[2] = system: TAOK1 (neojunction transcript); assay: In vivo PD RT-qPCR in NCI-N87 tumors, TAOK1; design: species or system CB17-SCID mice; details: 10 mg/kg IV single dose, NCI-N87 xenograft, versus vehicle
Protocol: as §1, §2, §3

TDM1: "treated intravenously with vehicle or 10 mg/kg trastuzumab, TDM1, or an exemplary HER2-ADC" [reference compound]
change in FBXW5 mature mRNA transcript in tumors [1]: Neither
change in TAOK1 neojunction transcript in tumors [2]: Neither

— patent publication US20260158152A1, “SPLICING MODULATOR ANTIBODY-DRUG CONJUGATES AND METHODS OF USE” (EISAI R&D MANAGEMENT CO., LTD., priority 2018, published 2026)
